{"sequences": {"note": "Protein sequences, listed by entry. Tags and fused reporters are not part of them. Residues count along the entry.", "UniProt P03956, 100-469 limits assumed": "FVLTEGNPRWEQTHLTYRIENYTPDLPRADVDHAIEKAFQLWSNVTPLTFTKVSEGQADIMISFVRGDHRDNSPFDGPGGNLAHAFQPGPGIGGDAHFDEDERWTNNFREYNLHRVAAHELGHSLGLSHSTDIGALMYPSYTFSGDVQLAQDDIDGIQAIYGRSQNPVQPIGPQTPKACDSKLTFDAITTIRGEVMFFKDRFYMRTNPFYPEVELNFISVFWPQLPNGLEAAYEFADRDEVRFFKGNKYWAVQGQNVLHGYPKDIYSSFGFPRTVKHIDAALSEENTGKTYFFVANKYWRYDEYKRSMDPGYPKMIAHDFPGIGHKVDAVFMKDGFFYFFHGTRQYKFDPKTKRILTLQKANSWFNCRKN"}, "source": "patent US6340709B1", "origin": "cited, not measured here", "target": "MMP-1 (Homo sapiens, UniProt P03956)", "conditions": "read-out: MMP-1 IC50; IA = inactive; cited from earlier work"}
{"molecule": "CC(C)C[C@H](NC(=O)[C@H](CCc1ccccc1)CP(=O)(O)CCCCN1C(=O)c2ccccc2C1=O)C(=O)Nc1ccccc1", "values": [{"measurement": "IC50", "value": "> 10", "unit": "µM"}]}
